According to patent US20260027125A1, “AN ANTIBACTERIAL PARENTERAL FORMULATION AND METHODS THEREOF” (BUGWORKS RESEARCH INDIA PVT. LTD., priority 2022, published 2026):
Where a name gives a salt, the structure may show the parent alone.

Assay: Solubility enhancement trials
Type: physicochemical
Protocol: All observations were recorded once the solution temperature reached to 25° C.-30° C.

## Cn1c(=O)ccc2ccc(F)c(CCNC[C@H]3CN(c4cnc5c(n4)NC(=O)CO5)C(=O)O3)c21 [compound of Formula (I) formate salt, (S)-6-(5-(((2-(7-fluoro-1-methyl-2-oxo-1,2-dihydroquinolin-8-yl)ethyl)amino)methyl)-2-oxooxazolidin-3-yl)-2H-pyrazino[2,3-b][1,4]oxazin-3(4H)-one formate]
Sr. No. 1: 5% Ascorbic acid solution
  Remark (appearance): Clear solution
Sr. No. 2: 7.5% Citric acid solution
  Remark (appearance): PPt on standing
Sr. No. 3: […] Acetic acid Solution
  Remark (appearance): Clear solution
Sr. No. 4: […] Succinic acid Solution
  Remark (appearance): Clear solution
Sr. No. 5: 7.5% Citric acid + 20% Sulfobutyl ether β-CD
  Remark (appearance): PPt on standing immediately
Sr. No. 6: 7.5% Citric acid + 20% HPβ-CD, standing overnight
  Remark (appearance): PPt on standing for
Sr. No. 7: 7.5% Citric acid + 20% HPβ-CD + 4% Ethanol, standing overnight
  Remark (appearance): PPt on standing for
Sr. No. 8: 5% Ascorbic acid + 5% Citric acid + 0.5% PVP K-12 + 20% HPβ-CD
  Remark (appearance): PPt on standing immediately
Sr. No. 9: 10% Ascorbic acid + 1% PVP K-12 + 20% HPβ-CD, 25 mg/mL sample
  Remark (appearance): 25 mg/mL sample- Clear
Sr. No. 9: 10% Ascorbic acid + 1% PVP K-12 + 20% HPβ-CD, 30 mg/mL sample
  Remark (appearance): hazy Solution
Sr. No. 10: 5% Ascorbic acid + 2% PVP K-12 + 20% HPβ-CD
  Remark (appearance): Clear solution
Sr. No. 12: 7.5% Ascorbic acid + 1% PVP K-12 + 20% HPβ-CD
  Remark (appearance): Clear solution
Sr. No. 13: 5% Ascorbic acid + […] Lactic acid + 1% PVP K-12 + 20% HPβ-CD
  Remark (appearance): — Clear solution
Sr. No. 15: 7.5% Ascorbic acid + 1% PVP K-12 + 30% HPβ-CD
  Remark (appearance): Clear solution
Sr. No. 17: 10% Ascorbic acid + 1% PVP K-12 + 30% HPβ-CD
  Remark (appearance): Clear solution
Sr. No. 18: 7% Ascorbic acid + […] Acetic acid + 1% PVP K-12 + 30% HPβ-CD
  Remark (appearance): Clear Solution with few
Sr. No. 19: 7% Ascorbic acid + 0.9% Glycine + 30% HPβ-CD
  Remark (appearance): Clear solution
Sr. No. 20: 7% Ascorbic acid + […] Acetic acid + 0.9% Glycine + 30% HPβ-CD
  Remark (appearance): Clear Solution with few
Sr. No. 21: 7% Ascorbic acid + […] lactic acid + 1% PVP K-12 + 30% HPβ-CD
  Remark (appearance): Clear solution
Sr. No. 22: 6% Ascorbic acid + […] Acetic acid + […] lactic acid + 1% PVP K-12 + 30% HPβ-CD
  Remark (appearance): Clear Pale Yellow color
Sr. No. 23: Acetate Buffer (200 mM, pH 3.0) + 6% Ascorbic acid + […] lactic acid + 1% PVP K-12 + 30% HPβ-CD
  Remark (appearance): Slightly Hazy Solution
Sr. No. 24: 5% Ascorbic acid + […] Acetic acid + […] lactic acid + 1% PVP K-12 + 30% HPβ-CD, pH adjusted by L-Arginine Solution
  Remark (appearance): Clear Pale Yellow Solution
